According to patent US6713443B1, “Compounds which modify serotoninergic transmission, diagnostic and therapeutic applications” (Institut Pasteur, priority 1993, dated 2004):
Marks after values point to notes of the source that are not given here.

Protein sequences, listed by entry. Tags and fused reporters are not part of them.
UniProt P28564, whole entry: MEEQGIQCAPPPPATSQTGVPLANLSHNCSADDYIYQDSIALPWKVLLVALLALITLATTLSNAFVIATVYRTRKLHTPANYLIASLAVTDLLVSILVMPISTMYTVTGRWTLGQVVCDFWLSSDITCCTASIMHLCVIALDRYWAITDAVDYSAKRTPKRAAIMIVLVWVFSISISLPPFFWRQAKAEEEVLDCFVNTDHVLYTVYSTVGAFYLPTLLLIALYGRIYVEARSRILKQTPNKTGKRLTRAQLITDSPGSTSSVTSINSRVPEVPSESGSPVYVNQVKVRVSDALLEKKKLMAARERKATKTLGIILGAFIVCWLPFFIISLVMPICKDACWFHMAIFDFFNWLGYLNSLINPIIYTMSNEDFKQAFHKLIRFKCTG
UniProt P61169, whole entry: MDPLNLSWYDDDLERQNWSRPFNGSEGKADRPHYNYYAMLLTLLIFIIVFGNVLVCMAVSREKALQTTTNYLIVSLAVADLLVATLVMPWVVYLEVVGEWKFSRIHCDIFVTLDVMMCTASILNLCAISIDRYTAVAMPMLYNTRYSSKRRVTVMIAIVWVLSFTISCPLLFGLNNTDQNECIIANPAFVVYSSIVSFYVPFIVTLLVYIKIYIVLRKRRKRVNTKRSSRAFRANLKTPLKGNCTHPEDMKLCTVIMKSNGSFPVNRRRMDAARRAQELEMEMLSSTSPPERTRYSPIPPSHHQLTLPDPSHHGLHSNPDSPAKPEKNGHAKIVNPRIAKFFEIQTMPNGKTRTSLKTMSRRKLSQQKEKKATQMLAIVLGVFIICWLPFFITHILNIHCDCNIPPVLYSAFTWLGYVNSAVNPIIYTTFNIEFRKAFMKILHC
UniProt P14842, whole entry: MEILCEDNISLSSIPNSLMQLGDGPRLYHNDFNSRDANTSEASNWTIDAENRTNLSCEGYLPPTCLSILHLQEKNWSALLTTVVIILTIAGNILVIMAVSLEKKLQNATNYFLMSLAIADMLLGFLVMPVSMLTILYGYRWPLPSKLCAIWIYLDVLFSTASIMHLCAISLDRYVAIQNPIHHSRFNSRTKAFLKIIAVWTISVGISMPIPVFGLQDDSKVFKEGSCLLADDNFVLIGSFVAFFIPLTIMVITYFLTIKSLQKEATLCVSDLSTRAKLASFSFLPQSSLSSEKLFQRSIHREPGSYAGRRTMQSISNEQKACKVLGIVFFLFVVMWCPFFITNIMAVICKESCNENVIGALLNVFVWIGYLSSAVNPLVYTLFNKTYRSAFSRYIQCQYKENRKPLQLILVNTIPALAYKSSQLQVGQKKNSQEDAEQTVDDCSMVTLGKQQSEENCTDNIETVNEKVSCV
UniProt P31390, whole entry: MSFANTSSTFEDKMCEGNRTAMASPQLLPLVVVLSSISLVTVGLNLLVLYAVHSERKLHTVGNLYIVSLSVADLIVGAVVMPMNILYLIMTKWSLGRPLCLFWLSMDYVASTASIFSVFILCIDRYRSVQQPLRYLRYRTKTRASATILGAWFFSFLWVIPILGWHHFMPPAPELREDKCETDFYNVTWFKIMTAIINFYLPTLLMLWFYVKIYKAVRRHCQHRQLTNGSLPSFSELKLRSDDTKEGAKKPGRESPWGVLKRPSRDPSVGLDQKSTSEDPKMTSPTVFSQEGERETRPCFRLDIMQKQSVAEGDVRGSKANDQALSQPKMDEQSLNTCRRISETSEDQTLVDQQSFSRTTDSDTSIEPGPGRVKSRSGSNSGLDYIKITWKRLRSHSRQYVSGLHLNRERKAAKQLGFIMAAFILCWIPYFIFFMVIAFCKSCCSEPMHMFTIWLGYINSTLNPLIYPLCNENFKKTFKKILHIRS
UniProt P31652, whole entry: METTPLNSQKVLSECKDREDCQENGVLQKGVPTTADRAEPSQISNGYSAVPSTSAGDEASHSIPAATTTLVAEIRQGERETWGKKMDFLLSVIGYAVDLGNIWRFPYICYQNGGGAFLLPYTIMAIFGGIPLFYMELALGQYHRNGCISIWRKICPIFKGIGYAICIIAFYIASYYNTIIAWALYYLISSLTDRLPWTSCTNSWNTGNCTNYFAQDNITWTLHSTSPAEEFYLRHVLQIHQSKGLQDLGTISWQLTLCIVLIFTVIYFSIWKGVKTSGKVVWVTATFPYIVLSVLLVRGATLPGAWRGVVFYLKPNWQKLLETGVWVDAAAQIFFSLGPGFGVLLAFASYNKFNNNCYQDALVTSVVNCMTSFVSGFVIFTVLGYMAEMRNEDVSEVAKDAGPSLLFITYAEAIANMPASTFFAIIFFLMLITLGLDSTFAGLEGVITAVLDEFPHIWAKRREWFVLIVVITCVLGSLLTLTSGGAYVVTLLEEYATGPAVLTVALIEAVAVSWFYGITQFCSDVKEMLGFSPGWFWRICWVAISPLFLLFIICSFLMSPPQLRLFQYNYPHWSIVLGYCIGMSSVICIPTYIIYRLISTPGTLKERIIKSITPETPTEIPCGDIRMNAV

What was measured:
5-HT1D receptors = assay: [3H]5-HT binding to 5-HT1D receptors, guinea pig; details: guinea pigs
β adrenergic receptor = assay: [3H]dihydroalprenolol binding, rat brain membranes; details: 1 nM peptide; [3H]dihydroalprenolol (3 nM) + 5-HT-5
5-HT1B/D receptors [1] = target: T1, 5-HT1B/D receptors (Rattus norvegicus, UniProt P28564); assay: K+-induced liberation of [3H]5-HT from rat brain hippocampus synaptosomes; format: cell-based
T1 construct: rat brain hippocampus synaptosomes previously charged with radioactive amine; from tissue; host or cells: rat brain hippocampus synaptosomes
Text: FIG. 3 represents the effect of the peptide on the release of serotonin in the synaptosomes of rat brain hippocampus. The results are expressed in percentages of [^3H]5-HT release (P2/P1 ratio) in the absence of peptide. Each point is the mean plus or minus the standard deviation of triplicate determinations, obtained with the aid of 3-6 separate hippocampus homogenates.
The method used is the method described above (BOLANOS-JIMENEZ B. et al., Eur. J. Pharmacol. 242, 1-6 (1993)) with the following modifications: the [^3H]acetylcholine was substituted by 60 nM [^3H]5-HT and 0.01% ascorbic acid was added to the incubation medium.
The activity of the peptide on the liberation of [^3H]5-HT from rat brain hippocampus synaptosomes previously charged with radioactive amine was examined.

5-HT1B receptor [2] = target: T2, 5-HT1B receptor (Rattus norvegicus, UniProt P28564); assay: [125I]cyanopindolol binding to 5-HT1B receptors, rat brain membranes; design: from tissue; host or cells: rat brain cortical membranes
Experimental: The binding of [^125I]cyanopindolol was measured as described in HOYER D. et al., Eur. J. Pharmacol. 118, 1-12 (1985).
FIG. 1A represents the results obtained with rat brain cortical membranes (50 μg of protein), incubated for 60 minutes at 37° C. in a total volume of 100 μl in the presence of 0.3 nM [^125I]cyanopindolol.
The incubation was carried out in a 5 mM Tris-HCl buffer, pH 7.5, containing 154 mM NaCl, 1 μM pargyline, 30 μM isoproterenol and various concentrations of the peptide (10^−13 to 10^−8 M). Each point corresponds to a mean plus or minus the standard deviation of five independent determinations.
FIG. 1C represents the results obtained from rat brain cortical membranes (50 μg of protein) incubated for 60 minutes at 37° C. in a total volume of 100 μl, in the presence of increasing concentrations of [^125I]cyanopindolol (0.06 to 0.35 nM) with (◯) or without (●) the peptide at 1 nM. Each point corresponds to the mean plus or minus the standard deviation of three independent determinations.
Rat brain cerebral membranes (200 μg) were incubated for 30 minutes at 25° C. with various specific radioligands (see table) in the presence or in the absence of 1 nM peptide.
The various binding conditions used for the serotoninergic receptors are those described above (PALACIOS J. M. et al., Methods in Neurosciences 12, 238-262 (1993)). For the other bindings, the incubation medium consisted of 50 mM Tris-HCl pH 7.4 containing 120 mM NaCl and 50 mM KCl ([^3H]spiroperidol, [^3H]quinuclidinyl benzilate, [^3H]naloxone, or 4 mM CaCl2 and 4 mM MgCl2 ([^3H]flunitrazepam), or 120 mM NaCl, 5 mM KCl, 2.5 mM CaCl2 and 1 mM MgSO4 ([^3H]prazosin), or 90 mM NaCl ([^3H]dihydroalprenolol).

dopaminergic D2 receptor = target: T3, dopaminergic D2 receptor (Rattus norvegicus, UniProt P61169); assay: D2 radioligand binding, rat brain membranes; details: 1 nM peptide; [3H]epiperone (2 nM) + 10 μM 5-HT
T3 construct: from tissue; host or cells: rat brain membranes

5-HT1EFC = assay: [3H]5-HT + 5-CT binding, rat brain membranes; details: 1 nM peptide; [3H]5-HT (30 nM) + 20 nM 5-CT
5-HT1B/1D receptors = assay: Inhibitory function of the 5-HT1B/1D receptors on the evoked release of acetylcholine; format: biochemical; details: preliminary tests
5-HT2A [3] = target: T4, 5-HT2A (Rattus norvegicus, UniProt P14842); assay: [3H]ketanserin binding, rat brain membranes; details: 1 nM peptide; [3H]ketanserin (5 nM)
T4 construct: from tissue; host or cells: rat brain membranes

C57/BL/6 mice = assay: Open field test; format: in vivo
Experimental: The activity of LSAL was determined in the open field test on c57/black-6 mice. Male C57/BL/6 mice (20-25 g) were used. The open field consisted of a white plastic box (35×35×20 cm) divided into 25 equal squares. LSAL dissolved in 5 ml of 0.9% saline solution in a volume of 5 μl was injected via the icv route into the mice, which were placed in a corner of the box. After two minutes, the number of squares crossed, the U-turns made and the immobilization time were measured. The results are expressed as the mean plus or minus the standard deviation. Difference with the control: *p<0.05, **p<0.005 (student's test).

5-HT2A [4] = target: T4, 5-HT2A; assay: [3H]DOB binding, rat brain membranes; details: 1 nM peptide; [3H]DOB (5 nM)
5-HT1B/D receptors [5] = assay: Relative activity at 1 nM, [125I]cyanopindolol binding; details: 1 nM peptide or amino acid, 0.3 nM [125I]cyanopindolol
Experimental: The binding experiments were performed as described above. […] Each value corresponds to the mean ± the standard deviation of three independent tests performed in quintuplicate.

[6] = target: T5, histaminergic H1 receptor (Rattus norvegicus, UniProt P31390); assay: [3H]mepyramine binding, rat brain membranes; details: 1 nM peptide; [3H]mepyramine (5 nM)
T5 construct: from tissue; host or cells: rat brain membranes

5-HT1B receptor [7] = target: T2, 5-HT1B receptor; assay: Adenylyl cyclase activity, rat substantia nigra homogenates; format: biochemical; design: from tissue; host or cells: rat substantia nigra homogenates
Text: This activity was dependent on the concentration, with a bell-shaped dose-response curve.

benzodiazepine receptors = assay: [3H]flunitrazepam binding, rat brain membranes; details: 1 nM peptide; [3H]flunitrazepam (3 nM)
[8] = target: T6, site of recapture of 5-HT (Rattus norvegicus, UniProt P31652); assay: Recapture of 5-HT in synaptosomal preparations; format: biochemical
T6 construct: from tissue; host or cells: synaptosomal preparations

opiate receptors = assay: [3H]naloxone binding, rat brain membranes; details: 1 nM peptide; [3H]naloxone (2 nM)

In the case of `CC(C)C[C@H](NC(=O)[C@H](C)NC(=O)[C@H](CO)NC(=O)[C@@H](N)CC(C)C)C(=O)O` [LSAL, Leu-Ser-Ala-Leu], the IC50 (5-HT1D receptors) is reported as 0.01 nM, the “INHIBITORY EFFECT AS % OF THE CONTROL” value (β adrenergic receptor) is reported as 10 ± 15 % of the control and the IC50 (5-HT1B/D receptors [1]) is reported as about 0.01 nM. For the same compound, the Emax at 0.0001 µM (5-HT1B/D receptors [1]; at a concentration of 10^−10M, decreases at higher concentrations, read-out: maximum effect, inhibition of the evoked liberation) was 20 to 25%, the “effect on the action of 5-HT on the liberation of [3H]5-HT” value (5-HT1B/D receptors [1]; conditions similar to the binding tests (at equilibrium)) was “counteracts its inhibitory effect” and the IC50 (5-HT1B receptor [2]) was 0.01 nM. For the same compound, the “INHIBITORY EFFECT AS % OF THE CONTROL” value (5-HT1B receptor [2]; 1 nM peptide, [125I]cyanopindolol (0.3 nM) + 30 μM isoproterenol + 0.1 nM 8-OH DPAT) was 70 ± 2 % of the control, the “type of interaction (saturation curves in the presence of the peptide)” value (5-HT1B receptor [2]; peptide at 1 nM, FIGS. 1C, 1D) was “noncompetitive interaction” and the Emax (5-HT1B receptor [2]; rat cerebral tissue homogenates, FIG. 1A, read-out: maximum effect, % inhibition) was 60%. The “INHIBITORY EFFECT AS % OF THE CONTROL” value (dopaminergic D2 receptor) was 2 ± 3 % of the control, the “INHIBITORY EFFECT AS % OF THE CONTROL” value (5-HT1EFC) was 0 ± 10 % of the control and the “effect on the action of a 5-HT1B agonist” value (5-HT1B/1D receptors; at a higher concentration) was “potentiated the effect”. The “effect on the modulatory activity of the 5-HT1B/1D receptors” value (5-HT1B/1D receptors; at a very low concentration) was “antagonized the modulatory activity”, the “INHIBITORY EFFECT AS % OF THE CONTROL” value (5-HT2A [3]) was 10 ± 5 % of the control and the “exploratory activity compared with the control animals” value (C57/BL/6 mice; 50 μg ICV per animal) was “significantly decreased”. For the same compound, the Immobilization time (C57/BL/6 mice; LSAL 50 μg icv, C57/BL/6 mice) was 47 ± 8** sec, the Number of rightings (C57/BL/6 mice; LSAL 50 μg icv, C57/BL/6 mice) was 15 ± 3* and the “Number of squares crossed” value (C57/BL/6 mice; LSAL 50 μg icv, C57/BL/6 mice) was 88 ± 9*. The “INHIBITORY EFFECT AS % OF THE CONTROL” value (5-HT2A [4]) was 2 ± 8 % of the control, the “RELATIVE POTENCY, Receptors 5-HT1B/D ([125I]-cyanopindolol)” value (5-HT1B/D receptors [5]) was 100 ± 10 percentage of the LSAL effect and the “INHIBITORY EFFECT AS % OF THE CONTROL” value [6] was 10 ± 10 % of the control. The “activity on adenylyl cyclase compared with NIH 3T3 cells” value (5-HT1B receptor [7]) was “practically similar”, the “INHIBITORY EFFECT AS % OF THE CONTROL” value (benzodiazepine receptors) was 2 ± 2 % of the control and the “effect on the recapture of 5-HT” value [8] was “did not show any other effect”. The “INHIBITORY EFFECT AS % OF THE CONTROL” value (opiate receptors) was 10 ± 10 % of the control.
